# Assay outcomes: PubChem BioAssay, Broad Institute
# miR122 inh = miR-122 inhibition in Huh7 cells; Huh7 miR-122 Renilla luciferase sensor, 48 h; neutral wells = 0, positive control = 100; activation (reporter increase), % at 12.5 µM; 340,000 compounds, 0.3% hits;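 active = mean replicate activation score at least 90 and every replicate individually at or above 90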;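 note: higher luciferase means less miR-122 activity so hits act as miR-122 inhibitors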
# C2C12 statin = suppression of simvastatin myotoxicity; C2C12 myotubes + simvastatin, ATP luminescence, 48 h; scaled: DMSO 0, geranylgeraniol control 100; rescue of ATP level, % at 7.49 µM; 330,000 compounds, 0.78% hits; AID 602340;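 active = mean ATP rescue above about 67%, or every replicate alone reaching that limit, limit read from the data, passing the limit was not always enough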;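 note: myotubes were challenged with 10 µM simvastatin during compound exposure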
# Cneo AK release = Cryptococcus neoformans lysis via adenylate kinase release | C. neoformans lysis, adenylate kinase release luminescence, 4 h; normalised: neutral wells 0, clomiphene wells 100 | lysis activity, % at 15 µM | 360,000 compounds, 0.2% hits;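 active = mean lysis activity across replicates of at least 80%, whatever share of replicates individually reach that level; inactive = mean lysis activity below 80%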
#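 Material: C. neoformans cells | Amount: Yeast cell density of 5 × 10^6 cells/mL | Medium: Fresh YPD growth medium | Dosing: Single dose | Times: Static 4 h at 37 °C with compound, 1 h detection | Detection: AK luminescence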
# Yeast UUG start = alters start codon recognition fidelity in yeast | S. cerevisiae UUG-firefly luciferase reporter, luminescence/redox ratio | activity score, % at 18.7 µM | 350,000 compounds, 0.13% hits | AID 602363;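 active = replicate mean at a twofold rise or more, about +100% in these data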;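 note: firefly luciferase made from a UUG start codon reports start codon fidelity; reporter light over untreated wells divided by growth signal over untreated wells; some hits fall short of that in this replicate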
# An asterisk follows results filed as active; . = no result; ! = not active in a repeat; [ ] = remark or other dose. Only some compounds are listed: those with a hit (about 1.2% of all), similar ones and a draw of the others.
(1) CCCCn1c(C(C)NC(=O)c2cccs2)nc2ccccc21 (centres undefined)
(2) CCCCCCn1c(C(C)O)nc2ccccc21 (centres undefined)
(3) CC(=O)N(C)C[C@@H]1Oc2cc(-c3ccc(F)cc3)ccc2S(=O)(=O)N([C@@H](C)CO)C[C@H]1C
(4) CC(=O)N(C)C[C@@H]1Oc2ncc(C#Cc3cccc(F)c3)cc2C(=O)N([C@@H](C)CO)C[C@H]1C
(5) C[C@@H]1CN([C@@H](C)CO)S(=O)(=O)c2ccc(C#C[C@@H](C)O)cc2O[C@@H]1CN(C)Cc1ccccn1
(6) C[C@H](CO)N1C[C@H](C)[C@H](CN(C)Cc2ccc(C(=O)O)cc2)Oc2c(NC(=O)Nc3ccccc3)cccc2C1=O
Compound | 1 | 2 | 3 | 4 | 5 | 6
Yeast UUG start | -20 | -18 | 11 | 16 | -13 | -3
C2C12 statin | 135* | 111* | -13 | 21 | -4 | 0
Cneo AK release | -3 | 0 | 5 | 2 | -3 | -1
miR122 inh | -3 | 0 | -3[16.7 µM] | 0[16.7 µM] | 3[16.7 µM] | 5[16.7 µM]

(7) COc1ccccc1-c1cc(C(F)(F)F)nc(S(=O)(=O)CCCC(=O)O)n1
(8) COc1ccccc1-c1cc(C(F)(F)F)nc(S(=O)(=O)CCCC(=O)N2CCOCC2)n1
(9) COC(=O)N(C)C[C@H]1OCc2cn(nn2)CCCC(=O)N([C@H](C)CO)C[C@@H]1C
(10) CC(C)OC(=O)N(C)C[C@H]1OCc2cn(nn2)CCCC(=O)N([C@@H](C)CO)C[C@@H]1C
(11) C[C@@H]1CN([C@@H](C)CO)C(=O)CCCn2cc(nn2)CO[C@@H]1CN(C)Cc1ccc2c(c1)OCO2
(12) C[C@@H]1CN([C@@H](C)CO)C(=O)CCCn2nncc2CO[C@H]1CN(C)Cc1cccc(C(F)(F)F)c1
Compound | 7 | 8 | 9 | 10 | 11 | 12
Yeast UUG start | -6 | -24 | 7 | 1 | 9 | -2
C2C12 statin | 20 | 90* | 4 | -2 | -8 | 0
Cneo AK release | -1 | 4 | 100* | 4 | 114* | 120*!
miR122 inh | -12 | -7 | 3[16.7 µM] | -5[16.7 µM] | -3[16.7 µM] | -4

(13) C[C@H](CO)N1C[C@H](C)[C@@H](CN(C)Cc2ccc3c(c2)OCO3)OCc2cn(nn2)CCCC1=O
(14) C[C@H]1CN([C@@H](C)CO)C(=O)CCCn2cc(nn2)CO[C@@H]1CN(C)Cc1ccc(C(F)(F)F)cc1
(15) CN(C)Cc1ccccc1CNC(=O)c1cccc(S(=O)(=O)Nc2ccc3c(c2)OCO3)c1
(16) C[C@@H]1CN([C@H](C)CO)S(=O)(=O)c2ccc(-c3ccc(C(=O)N(C)C)cc3)cc2O[C@H]1CN(C)C(=O)Cc1ccccn1
(17) C[C@@H]1CN([C@@H](C)CO)S(=O)(=O)c2ccc(-c3ccccc3)cc2O[C@H]1CN(C)C(=O)C1CCCCC1
(18) CC(C)CC#Cc1ccc2c(c1)O[C@H](CN(C)C(=O)C1CCC1)[C@H](C)CN([C@H](C)CO)S2(=O)=O
Compound | 13 | 14 | 15 | 16 | 17 | 18
Yeast UUG start | . | . | 1 | -12 | 33 | 1
C2C12 statin | -1 | -2 | -11 | 3 | -18 | -10
Cneo AK release | -15 | 82* | 3 | 93*! | 112* | 2
miR122 inh | 1[16.7 µM] | -2[16.7 µM] | 117* | -3 | 44[16.7 µM] | -14[16.7 µM]

(19) CC(C)CC#Cc1ccc2c(c1)O[C@@H](CN(C)C(=O)C1CCC1)[C@@H](C)CN([C@H](C)CO)S2(=O)=O
(20) CC(C)CC#Cc1ccc2c(c1)O[C@H](CN(C)C(=O)C1CCC1)[C@@H](C)CN([C@@H](C)CO)S2(=O)=O
(21) CC(C)CC#Cc1ccc2c(c1)O[C@H](CN(C)C(=O)C1CCC1)[C@H](C)CN([C@@H](C)CO)S2(=O)=O
(22) C[C@H]1CN([C@@H](C)CO)C(=O)c2cccc(NS(=O)(=O)c3cccs3)c2O[C@@H]1CN(C)C
(23) COc1ccc(-c2cnc3c(c2)C(=O)N([C@H](C)CO)C[C@@H](C)[C@@H](CN(C)Cc2ccc(C(=O)O)cc2)O3)cc1
(24) CCCNC(=O)N(C)C[C@@H]1Oc2cc(C3=CCCCC3)ccc2S(=O)(=O)N([C@H](C)CO)C[C@H]1C
Compound | 19 | 20 | 21 | 22 | 23 | 24
Yeast UUG start | 48 | 37 | 1 | 5 | -1 | 4
C2C12 statin | 6 | -16 | -8 | 0 | -3 | -32
Cneo AK release | 100* | 109* | 4 | 0 | -4 | -3
miR122 inh | 157*[16.7 µM] | 19[16.7 µM] | -20[16.7 µM] | 40[16.7 µM] | -1[16.7 µM] | 5[16.7 µM]

(25) C/C=C/c1ccc2c(c1)O[C@@H](CN(C)C(=O)NC1CCCCC1)[C@@H](C)CN([C@@H](C)CO)S2(=O)=O
(26) CC(C)CC#Cc1ccc2c(c1)O[C@H](CN(C)C(=O)Nc1ccccc1F)[C@H](C)CN([C@@H](C)CO)S2(=O)=O
(27) CC(C)CC#Cc1ccc2c(c1)O[C@H](CN(C)C(=O)Nc1ccccc1F)[C@@H](C)CN([C@@H](C)CO)S2(=O)=O
(28) CCCNC(=O)N(C)C[C@@H]1Oc2cc(C3=CCCCC3)ccc2S(=O)(=O)N([C@@H](C)CO)C[C@@H]1C
(29) CC(C)C(=O)Nc1ccc2c(c1)C(=O)N(C)[C@@H]1CC[C@H](CC(=O)NCc3cccc(F)c3)O[C@H]1CO2
(30) COc1ccc(C#Cc2ccc3c(c2)[C@H]2[C@H](CCN2S(=O)(=O)c2cccc(OC)c2)[C@H](CO)N3C)cc1
Compound | 25 | 26 | 27 | 28 | 29 | 30
Yeast UUG start | 11 | -3 | 21 | 1 | 12 | 4
C2C12 statin | 111* | -38 | -15 | 95* | -3 | 13
Cneo AK release | 5 | -2 | 3 | -2 | -5 | 5
miR122 inh | -15[16.7 µM] | 18[16.7 µM] | 107*[16.7 µM] | 9[16.7 µM] | -43[16.7 µM] | 32[16.7 µM]

(31) O=c1cc(/C=C/c2ccccc2)oc2ccccc12
(32) N#CC1=C(N)OC2=C(C(=O)CCC2)C12C(=O)N1CCCc3cccc2c31 (centres undefined)
(33) N#CC1=C(N)OC2=C(C(=O)CCC2)[C@]12C(=O)N(CC(N)=O)c1ccccc12
(34) COc1ccccc1NC(=O)N[C@@H]1CC[C@H](CCn2cc(-c3ccccc3OC)nn2)O[C@H]1CO
(35) COc1ccccc1NC(=O)N[C@@H]1CC[C@@H](CCn2cc(-c3ccccc3OC)nn2)O[C@@H]1CO
(36) COc1ccccc1NC(=O)N[C@@H]1CC[C@@H](CCn2cc(C3(O)CCCC3)nn2)O[C@H]1CO
Compound | 31 | 32 | 33 | 34 | 35 | 36
Yeast UUG start | -10 | -12 | -12 | 3 | -9 | .
C2C12 statin | 138* | 34 | 109* | -6 | 5 | -11
Cneo AK release | -1 | 0 | -1 | 107* | 0 | 94*
miR122 inh | 40 | -1 | 0 | . | . | 0[16.7 µM]

(37) COc1cccc(-c2cn(CC[C@@H]3CC[C@@H](NC(C)=O)[C@H](CO)O3)nn2)c1
(38) O=C(c1cccnc1)N1C[C@H]2[C@@H](c3ccccc31)[C@@H](CO)N2CC1CCCCC1
(39) CC(=O)N1CCSc2ccc(S(=O)(=O)NCCc3ccc(Cl)cc3)cc21
(40) Cc1cccc(NC(=O)c2cccc(NS(=O)(=O)c3ccc(Cl)cc3)c2)c1
(41) CCc1cccc(NS(=O)(=O)c2ccc3c(c2)N(C)CCO3)c1
(42) COc1cccc(NS(=O)(=O)c2ccc3c(c2)N(C(C)=O)CCO3)c1
(43) COc1ccc(NS(=O)(=O)c2ccc3c(c2)N(C(C)=O)CCO3)c(OC)c1
(44) CNC(=O)C[C@H]1CC[C@H]2[C@@H](COc3ccc(NC(=O)c4cc(F)cc(F)c4)cc3C(=O)N2C)O1
Compound | 37 | 38 | 39 | 40 | 41 | 42 | 43 | 44
Yeast UUG start | 25 | 36 | -12 | -3 | 10 | -10 | -9 | .
C2C12 statin | -3 | 16 | -23 | 105* | -2 | 12 | 4 | -2
Cneo AK release | 113* | -2 | -8 | 0 | 2 | -1 | 0 | -2
miR122 inh | . | 13[16.7 µM] | 94* | 3 | 172* | 195* | 11 | -28[16.7 µM]

# One compound at a time, as listed above.
# CC(=O)N1CCSc2ccc(S(=O)(=O)NCCc3ccc(Cl)cc3)cc21 reads Yeast UUG start = -12; C2C12 statin = -23; Cneo AK release = -8; miR122 inh = 94*
# COc1cccc(NS(=O)(=O)c2ccc3c(c2)N(C(C)=O)CCO3)c1 reads Yeast UUG start = -10; C2C12 statin = 12; Cneo AK release = -1; miR122 inh = 195*
